## Yeast mating assay 1: variants of the scFv Ab-14

Values reported by Engelhart et al. 2022, doi:10.1038/s41597-022-01779-4 (FLAb copy).

The target is the same throughout: PDVDLGDISGINAS, from the HR2 region of SARS-CoV-2 spike.

Ab-14 is the parent antibody, in scFv form: VH, then three GGGGS repeats, then VL. The light chain is unchanged in all variants.
VH: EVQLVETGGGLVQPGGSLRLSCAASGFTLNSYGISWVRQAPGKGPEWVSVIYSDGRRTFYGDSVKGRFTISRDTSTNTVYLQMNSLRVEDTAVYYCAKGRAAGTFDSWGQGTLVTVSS
VL: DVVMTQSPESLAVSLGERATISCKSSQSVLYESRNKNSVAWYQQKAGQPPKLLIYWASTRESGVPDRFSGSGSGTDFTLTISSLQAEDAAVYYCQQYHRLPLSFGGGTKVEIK

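The parent was found by panning a naive human phage display library on the peptide. Variants in AAYL49 differ from the parent at up to three CDR positions; double and triple changes were sampled at random. AlphaSeq pools MATa yeast showing the antibodies with MATalpha yeast showing the peptide. Mating (16 h, 30 °C) was followed by selection of diploids and sequencing of their barcodes. Each replicate has its own calibration line, from reference interactions of the BCL2 family. The assay was run in three technical replicates.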

The parent's heavy chain CDRs are GFTLNSYGIS, VIYSDGRRTFYGDSVK, GRAAGTFDS; each variant's own CDRs replace them letter for letter. All variants listed here change S31 of the VH, counted from its first residue. Values are apparent Kd, the geometric mean of the replicates that gave a signal; lower means stronger binding. An entry "nd" has no value in the source: the pair was not observed among the diploids in any replicate. This suggests poor binding but is not conclusive. For reference, the parent read 4.4 nM as the reference entry and 13 µM (one replicate of three) as a member of this library. As a blank, each scFv also met three strains without target: over library AAYL49, 15% of these pairings were detected, typically at 11 µM and seldom below 680 nM. Also given: how often the same scFv was detected with the empty control strains.

For LFTLNHYGIS | VIYSDGRRTFYGDNVK | GRAAGTFDS, the assay gave 29 nM (3 of 3 replicates; controls 0 of 9). Variant GYTLNNYGIS | VIYSDGRRTFYGDSTK | GRAAGTFDS showed 4.5 µM (3 of 3 replicates; controls 6 of 9). With GFTLNQYGIS | VIYSDGRRTFYGDSVK | GRAAGTFDS the result was nd (0 of 3 replicates; controls 1 of 9). For GFTLNAYGIS | VIYSDGRRTFYGDSVR | GRTAGTFDS, the assay gave 8.9 nM (3 of 3 replicates; controls 1 of 9). For GFTLNRYGIS | VIYSAGRRTFYGDSVK | FRAAGTFDS, the assay gave nd (0 of 3 replicates; controls 0 of 9).

For GFTLNCYGIS | VDYSDGRRTRYGDSVK | GRAAGTFDS, the assay gave 7.6 µM (1 of 3 replicates; controls 4 of 9). Variant GFTLNVYGIS | VIYSDGRRTFYGDSVK | GRAAGFFDQ gave 36 µM (1 of 3 replicates; controls 2 of 9). With GFTLNEYGIS | VIYSDGIRTFNGDSVK | GRAAGTFDS the result was 6.9 nM (3 of 3 replicates; controls 1 of 9). Variant GFTLNGYGIS | VIYSDGRRTDYGDSVK | GRAAGTFDD gave nd (0 of 3 replicates; controls 4 of 9). Variant GFTLKNYGIS | IIYSDGRRTFYGDSVK | GRAAGTFDS showed 300 nM (3 of 3 replicates; controls 1 of 9).

Variant GFTLNGYGPS | MIYSDGRRTFYGDSVK | GRAAGTFDS gave nd (0 of 3 replicates; controls 0 of 9). Variant GFTLNNYGIS | VIYSDGRRTFYGDSVI | GRAAGTFDS gave 32 nM (3 of 3 replicates; controls 0 of 9). For GFTLNAYGLS | VIYSDGRRTFNGDSVK | GRAAGTFDS, the assay gave nd (0 of 3 replicates; controls 0 of 9). Variant GYTLNHYGIS | VIYSDGRRFFYGDSVK | GRAAGTFDS gave 140 nM (3 of 3 replicates; controls 2 of 9). Variant GFTLNRYGIS | VIYSDGRRTCYGDSVK | GRAAGNFDS showed 420 µM (2 of 3 replicates; controls 4 of 9).

For GFGLNPYGIS | VFYSDGRRTFYGDSVK | GRAAGTFDS, the assay gave nd (0 of 3 replicates; controls 1 of 9). For GFTLNYYGIS | WIYSDGRRTFYGDSVK | GRAAGTFES, the assay gave nd (0 of 3 replicates; controls 2 of 9). For YFTLNHYGIS | VMYSDGRRTFYGDSVK | GRAAGTFDS, the assay gave 490 nM (1 of 3 replicates; controls 0 of 9). With GFTLNMYGIS | VISSDGRRTFYGDSVK | GRAAGTFDS the result was 1.8 µM (3 of 3 replicates; controls 6 of 9). Variant GFTLNRYGIS | VIYSDGRRTFYYDSVN | GRAAGTFDS gave 5.8 µM (2 of 3 replicates; controls 2 of 9).

Variant GFTLNVYGIS | VIYSDGRRTFFGDSVK | GRAAGTFDS gave 8.8 µM (3 of 3 replicates; controls 1 of 9). For GFTLNKYGIS | VIYSDIRRTFYGDSGK | GRAAGTFDS, the assay gave nd (0 of 3 replicates; controls 2 of 9). For GFQLNRYGIS | VIYSDGRRTLYGDSVK | GRAAGTFDS, the assay gave 1.6 µM (1 of 3 replicates; controls 4 of 9). For GFTLNGYFIS | VIYSDGRRTFYGDSVK | PRAAGTFDS, the assay gave 11 µM (1 of 3 replicates; controls 2 of 9). Variant GFTLNKYGVS | VIYSDGRRTFYGDSVK | ERAAGTFDS gave nd (0 of 3 replicates; controls 0 of 9).

Variant GLTLNTYGIS | VIYSDGRRTFYGDSVK | GRAAGTFDV gave 62 nM (3 of 3 replicates; controls 1 of 9). Variant GYTLNYYGIS | VIYSDGRRTFYGDSVK | GRAAGTFDS showed 170 nM (3 of 3 replicates; controls 3 of 9). With GFTLNHYGIS | VIYSDGRRTFYGDSVC | GRAAGTFNS the result was 8.7 µM (3 of 3 replicates; controls 2 of 9). Variant GFTLNAYGIS | VIYADGRRTFYGDSVK | GRAAGSFDS gave 52 nM (3 of 3 replicates; controls 1 of 9). Variant GFTLNAYGIE | VIYSDGRRTFYGDSVK | GRAAGTFVS showed nd (0 of 3 replicates; controls 1 of 9).

With GFTLNGYGQS | VIYSDGRRTFYGDSVK | GRAAGTFDS the result was 4.7 µM (1 of 3 replicates; controls 1 of 9). For GFTLNCYGIS | VIYSDGRRTFYSHSVK | GRAAGTFDS, the assay gave 340 nM (3 of 3 replicates; controls 1 of 9). Variant GFTLNQYGIS | VIYDDGRRTFYGCSVK | GRAAGTFDS gave nd (0 of 3 replicates; controls 1 of 9). For NFTLNYYGIS | VIYSDGRRTFYGDSVK | GRAARTFDS, the assay gave nd (0 of 3 replicates; controls 1 of 9). Variant GFTLNAYGIS | VHYSDGRRTFHGDSVK | GRAAGTFDS showed nd (0 of 3 replicates; controls 0 of 9).

For GFTLNLYGIS | VIYSDGFRTFGGDSVK | GRAAGTFDS, the assay gave 990 nM (1 of 3 replicates; controls 2 of 9). For GFTLNPYGIS | VIYSDGRRTFYGDSVK | GRAAGTFDA, the assay gave 320 µM (1 of 3 replicates; controls 0 of 9). With GFTLNFDGIS | VIYSNGRRTFYGDSVK | GRAAGTFDS the result was 200 µM (1 of 3 replicates; controls 0 of 9). Variant GFTLMDYGIS | VIYSDGRRTFYGDSVK | GRAAGTFDA showed 6.0 nM (3 of 3 replicates; controls 4 of 9). Variant GFTLNLYGIS | VIYSDGRDTFYGMSVK | GRAAGTFDS showed 81 µM (1 of 3 replicates; controls 3 of 9).

With CFTLNAYGIS | VIYSDGRRTFYGDSVK | GRAAGTFIS the result was nd (0 of 3 replicates; controls 0 of 9).